Columns and labels:
α4β7 integrin [1] = target: T1, α4β7 integrin (Homo sapiens (Human), UniProt P13612+P26010); experiment: Integrin Adhesion Assay: Protocol 1 (MAdCAM-coated plate, RPMI-8866 cells, CellTiter GLO readout); settings: read-out: Mean IC50 α4β7
α4β1 integrin [2] = target: T2, α4β1 integrin (Homo sapiens (Human), UniProt P05556+P13612); experiment: Integrin Adhesion Assay: Protocol 5 (VCAM-coated plate, RPMI-8866 cells with stable LOF mutation of the ITGB7 gene)
α4β7 integrin [3] = target: T1, α4β7 integrin; experiment: Integrin Adhesion Assay: Protocol 4 (MAdCAM-coated plate, RPMI-8866 cells with stable LOF mutation of the ITGB1 gene)
α4β1 integrin [4] = target: T2, α4β1 integrin; experiment: Integrin Adhesion Assay: Protocol 2 (VCAM-coated plate, Jurkat cells, CellTiter GLO readout); settings: read-out: Mean IC50 α4β1, determined by at least one of the assays described (protocol not specified)
[5] = read-out: Mean IC50 α4β7 KO, Protocol 4, RPMI-8866 cells with LOF mutation of ITGB1, MAdCAM
[6] = read-out: Mean IC50 α4β1 KO, Protocol 5, RPMI-8866 cells with LOF mutation of ITGB7, VCAM

Chains of the proteins cited; added tags and fusions are not shown. Residues count along the entry.
UniProt P13612, 34-1032 limits assumed: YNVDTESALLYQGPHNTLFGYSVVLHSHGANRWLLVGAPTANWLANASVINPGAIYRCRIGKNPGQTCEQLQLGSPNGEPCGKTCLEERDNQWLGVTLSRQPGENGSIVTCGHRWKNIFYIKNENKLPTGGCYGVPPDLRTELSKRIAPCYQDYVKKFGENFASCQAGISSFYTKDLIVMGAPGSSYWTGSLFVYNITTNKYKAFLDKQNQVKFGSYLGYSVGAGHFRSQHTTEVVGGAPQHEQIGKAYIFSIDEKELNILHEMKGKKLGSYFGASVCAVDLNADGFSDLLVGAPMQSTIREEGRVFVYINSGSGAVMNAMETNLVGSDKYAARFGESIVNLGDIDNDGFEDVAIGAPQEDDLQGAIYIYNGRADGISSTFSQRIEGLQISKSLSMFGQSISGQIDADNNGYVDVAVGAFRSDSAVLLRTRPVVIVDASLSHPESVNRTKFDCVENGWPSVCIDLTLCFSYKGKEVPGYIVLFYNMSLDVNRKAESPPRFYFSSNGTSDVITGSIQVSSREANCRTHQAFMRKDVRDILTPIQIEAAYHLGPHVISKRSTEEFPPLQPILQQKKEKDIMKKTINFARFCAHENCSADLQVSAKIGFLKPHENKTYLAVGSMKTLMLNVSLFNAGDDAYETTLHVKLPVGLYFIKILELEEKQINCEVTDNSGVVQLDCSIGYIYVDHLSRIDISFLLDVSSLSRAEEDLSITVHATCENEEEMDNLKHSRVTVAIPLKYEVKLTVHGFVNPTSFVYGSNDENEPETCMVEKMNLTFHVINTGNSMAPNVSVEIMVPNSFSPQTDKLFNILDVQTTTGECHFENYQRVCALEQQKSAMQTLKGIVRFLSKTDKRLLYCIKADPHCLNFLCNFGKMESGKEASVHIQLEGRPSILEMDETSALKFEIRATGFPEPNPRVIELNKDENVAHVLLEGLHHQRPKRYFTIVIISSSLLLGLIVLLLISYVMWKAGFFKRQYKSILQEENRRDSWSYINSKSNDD
UniProt P26010, 20-798 limits assumed: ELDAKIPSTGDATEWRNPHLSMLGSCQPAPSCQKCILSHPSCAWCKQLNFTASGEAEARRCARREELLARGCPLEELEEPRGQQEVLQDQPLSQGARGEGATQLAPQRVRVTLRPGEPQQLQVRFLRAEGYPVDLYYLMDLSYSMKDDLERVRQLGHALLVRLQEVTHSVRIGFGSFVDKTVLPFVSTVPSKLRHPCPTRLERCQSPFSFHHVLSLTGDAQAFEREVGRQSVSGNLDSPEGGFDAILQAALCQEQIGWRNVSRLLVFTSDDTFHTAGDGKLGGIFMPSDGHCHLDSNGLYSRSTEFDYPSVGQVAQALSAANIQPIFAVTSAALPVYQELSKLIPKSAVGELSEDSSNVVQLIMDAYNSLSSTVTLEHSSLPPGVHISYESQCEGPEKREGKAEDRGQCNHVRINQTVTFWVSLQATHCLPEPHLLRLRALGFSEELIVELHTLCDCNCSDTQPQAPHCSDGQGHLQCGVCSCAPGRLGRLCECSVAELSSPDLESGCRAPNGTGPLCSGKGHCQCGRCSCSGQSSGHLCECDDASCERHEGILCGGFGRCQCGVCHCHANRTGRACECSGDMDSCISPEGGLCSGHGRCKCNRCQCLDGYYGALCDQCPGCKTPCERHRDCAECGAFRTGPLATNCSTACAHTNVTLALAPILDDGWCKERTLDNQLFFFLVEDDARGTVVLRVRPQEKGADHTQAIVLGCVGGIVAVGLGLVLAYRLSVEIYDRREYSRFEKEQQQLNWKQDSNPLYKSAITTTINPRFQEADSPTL
UniProt P05556, 21-798 limits assumed: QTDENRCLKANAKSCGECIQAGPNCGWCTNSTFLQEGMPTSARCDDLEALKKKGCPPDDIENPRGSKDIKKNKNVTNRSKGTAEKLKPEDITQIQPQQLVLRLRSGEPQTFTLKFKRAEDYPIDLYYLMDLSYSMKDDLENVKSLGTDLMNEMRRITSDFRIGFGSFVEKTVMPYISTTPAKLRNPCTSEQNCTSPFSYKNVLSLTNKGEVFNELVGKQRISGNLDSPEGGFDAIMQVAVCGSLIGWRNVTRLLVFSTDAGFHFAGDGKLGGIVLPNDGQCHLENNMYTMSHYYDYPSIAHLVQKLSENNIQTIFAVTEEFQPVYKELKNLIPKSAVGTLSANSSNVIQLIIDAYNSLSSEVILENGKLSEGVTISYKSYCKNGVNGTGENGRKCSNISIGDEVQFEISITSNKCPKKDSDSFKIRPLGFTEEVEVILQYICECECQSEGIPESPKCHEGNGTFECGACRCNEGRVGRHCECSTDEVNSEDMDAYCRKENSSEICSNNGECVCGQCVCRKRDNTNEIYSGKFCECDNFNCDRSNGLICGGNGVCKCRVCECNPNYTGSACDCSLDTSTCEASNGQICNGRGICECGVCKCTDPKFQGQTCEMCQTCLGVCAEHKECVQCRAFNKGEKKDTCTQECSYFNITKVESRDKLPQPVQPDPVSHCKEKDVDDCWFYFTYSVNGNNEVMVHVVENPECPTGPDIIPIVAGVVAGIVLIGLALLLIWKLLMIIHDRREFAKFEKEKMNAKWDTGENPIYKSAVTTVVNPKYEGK

IC50 (α4β7 integrin [3]; [5]) | IC50 (α4β1 integrin [2]; [6]) | Structure (SMILES) | other results
100 to 1000 nM |  | CN(C)c1ccc2c(C(F)(F)F)c(-c3cccc4c(C[C@H](NC(=O)c5c(F)cc(N6CCOC[C@@H]6C(F)(F)F)cc5F)C(=O)O)cccc34)c(=O)n(C)c2c1 | IC50 (α4β7 integrin [1]; protocol not given): 100 to 1000 nM
 | 100 to 1000 nM | Cn1c(=O)c(-c2cccc3c(C[C@H](NC(=O)c4c(F)cccc4F)C(=O)O)cccc23)c(C(F)(F)F)c2cc(CCN)ccc21 | 

Further lines, the compound ahead of its results:

Structure (SMILES) | IC50 (α4β7 integrin [3]; [5]) | IC50 (α4β1 integrin [2]; [6]) | other results
Cn1c(=O)c(-c2cccc3c(C[C@H](NC(=O)c4c(F)cc5c(cnn5CC(F)(F)F)c4F)C(=O)O)cccc23)c(C(F)(F)F)c2ccccc21 |  |  | IC50 (α4β7 integrin [1]): 10 to 100 nM; IC50 (α4β1 integrin [2]; read-out: Mean IC50 α4β1 KO^b, RPMI-8866 cells with stable LOF mutation of the ITGB7 gene): > 1000 nM
COc1cc(CN(C)C)cc(OC)c1-c1cccc2c(C[C@H](NC(=O)c3c(C)cccc3F)C(=O)O)cccc12 |  |  | IC50 (α4β7 integrin [3]; read-out: Mean IC50 α4β7 KO^a, RPMI-8866 cells with stable LOF mutation of the ITGB1 gene, tested form: HCl): < 10 nM; IC50 (α4β1 integrin [2]; read-out: Mean IC50 α4β1 KO^b, RPMI-8866 cells with stable LOF mutation of the ITGB7 gene, tested form: HCl): > 1000 nM
COc1c(CN2CCCCC2)ccnc1-c1cccc2c(C[C@H](NC(=O)C3(C(F)(F)F)CCN(CC(F)(F)F)CC3)C(=O)O)cccc12 | 10 to 100 nM | > 1000 nM | 
COc1cc2c(c(OC)c1-c1cccc3c(C[C@H](NC(=O)C4(C(F)(F)F)CCN(CC(F)(F)F)CC4)C(=O)O)cccc13)CN(C(C)C)CC2 | < 10 nM | 100 to 1000 nM | 
Cn1ccc(=O)n(-c2cccc3c(C[C@H](NC(=O)c4c(F)cc5nc(CC(F)(F)F)[nH]c5c4F)C(=O)O)cccc23)c1=O |  |  | IC50 (α4β1 integrin [4]): > 1000 nM

Reference: patent publication US20250313535A1, “ALPHA 4 BETA 7 INTEGRIN MODULATORS AND USES THEREOF” (DICE MOLECULES SV, INC., priority 2022, published 2025)
